Results from US4062948A, “Dihydromocimycin antibiotics” (Gist-Brocades N.V., priority 1970, dated 1977).

What was measured:
[1] = stability against pelletizing
[2] = test system: microorganism causing Treponema dysentery; test: experiments against the microorganism causing Treponema dysentery

CC=CC=CC1OC(O)(C(CC)C(=O)NCC=CC=C(C)C(OC)C(C)C2OC(C=CC=CC=C(C)C(=O)C3=C(O)CCNC3=O)C(O)C2O)C(O)C(O)C1(C)C (centres unmarked) [dihydromocimycin]
stability against pelletizing [1]: good stability | activity against the microorganism causing Treponema dysentery compared with tylosin [2]: markedly higher activity against the microorganism than tylosin
